Apparent affinities of Ab-14 variants for a coronavirus HR2 peptide

Data: MIT Lincoln Laboratory AlphaSeq set, Engelhart et al. 2022, doi:10.1038/s41597-022-01779-4, as distributed in FLAb.

Antigen: PDVDLGDISGINAS, a 14-residue peptide of the SARS-CoV-2 spike HR2 region.

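Phage display of a naive human antibody library on the peptide gave the parent. Variants in AAYL49 differ from the parent at up to three CDR positions; double and triple changes were sampled at random. The scFvs were displayed on barcoded MATa yeast, the peptide on MATalpha yeast. The frequency of each diploid, read from paired DNA barcodes, reflects how well the two displayed proteins bind. A regression on co-assayed BCL2-family reference pairs converts the normalised counts of each replicate to an apparent Kd. Mating was done three times.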

Each scFv is VH, three GGGGS repeats, VL, as in the parent Ab-14, and differs from it in the CDRs of the heavy chain only.
VH: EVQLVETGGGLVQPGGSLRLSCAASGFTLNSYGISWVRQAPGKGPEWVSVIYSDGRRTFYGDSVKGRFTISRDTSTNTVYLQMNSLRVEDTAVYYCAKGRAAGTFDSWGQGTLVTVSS
VL: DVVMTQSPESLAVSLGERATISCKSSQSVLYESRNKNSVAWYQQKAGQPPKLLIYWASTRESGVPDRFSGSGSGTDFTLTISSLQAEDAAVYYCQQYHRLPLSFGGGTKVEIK

Positions count from residue 1 of the parent VH; L29M puts M in place of L. Values are log10 of the apparent Kd in nM; lower means stronger binding. A mean of the replicates is given; it leaves out those without a signal. A pair that was not seen in any replicate is written "nd"; this usually means weak binding, but a binder can also be missed.

| changes | mean, log10 nM | seen in | empty controls |
|---|---|---|---|
| L29M+V50K+G61E | 4.53 | 2 of 3 | 3 of 9 |
| L29Y+N30L+Y32S | 4.35 | 2 of 3 | 0 of 9 |
| L29A+S53M+T104A | nd | 0 of 3 | 0 of 9 |
| Y32H+S35A+K65E | 4.89 | 3 of 3 | 4 of 9 |
| S53Q+G99K+F105V | 4.23 | 1 of 3 | 0 of 9 |
| Y52G+R57C+A102M | 3.89 | 1 of 3 | 0 of 9 |
| S35F+V64A+G103N | nd | 0 of 3 | 1 of 9 |
| G55N+G61K+F105Y | 4.59 | 1 of 3 | 4 of 9 |
| S31E+V50C+K65Y | 2.37 | 3 of 3 | 1 of 9 |
| S31Y+Y52K+D106W | 4.70 | 1 of 3 | 2 of 9 |
| G26L+S53V+D106E | nd | 0 of 3 | 0 of 9 |
| I51K+S53T+S107D | 3.80 | 1 of 3 | 4 of 9 |
| G55S+R57W+S107C | 4.07 | 2 of 3 | 0 of 9 |
| G26A+L29A+R100W | nd | 0 of 3 | 0 of 9 |
| S35I+S53E+G55C | nd | 0 of 3 | 0 of 9 |
| N30S+S35D+R57N | 5.09 | 1 of 3 | 3 of 9 |
| L29P+K65A | 2.90 | 2 of 3 | 1 of 9 |
| T28F+V50I+G55M | nd | 0 of 3 | 0 of 9 |
| Y32H+F59A+T104N | 1.41 | 3 of 3 | 0 of 9 |
| G33E+K65S+S107G | 5.53 | 1 of 3 | 1 of 9 |
| Y52W+S53I+A102I | nd | 0 of 3 | 0 of 9 |
| R57C+A101K+F105I | nd | 0 of 3 | 2 of 9 |
| Y32G+S53T+R100L | 3.80 | 1 of 3 | 3 of 9 |
| I34H+Y60S+G61K | nd | 0 of 3 | 0 of 9 |
| G55R+R57G+S63M | nd | 0 of 3 | 0 of 9 |
| Y52G+G103R+F105E | 3.55 | 2 of 3 | 0 of 9 |
| N30V+R57Q+S63Y | nd | 0 of 3 | 0 of 9 |
| Y32G+V50A+D54H | nd | 0 of 3 | 1 of 9 |
| I34K+V50T+R57T | nd | 0 of 3 | 0 of 9 |
| T58M+D62C+S63N | 3.73 | 1 of 3 | 0 of 9 |

The remaining entries, values ahead:

| mean, log10 nM | seen in | empty controls | changes |
|---|---|---|---|
| 0.65 | 3 of 3 | 3 of 9 | T28I+S63A+A101T |
| 3.84 | 1 of 3 | 4 of 9 | S35K+V50G |
| nd | 0 of 3 | 0 of 9 | G26M+G61F+K65C |
| nd | 0 of 3 | 0 of 9 | N30C+R57Q+R100S |
| 3.14 | 3 of 3 | 1 of 9 | F27K+S53T+T58G |
| nd | 0 of 3 | 2 of 9 | G33S+V50L+T104H |
| 3.36 | 1 of 3 | 1 of 9 | I34P+G61Q |
| 4.32 | 1 of 3 | 1 of 9 | Y32S+R56Q+R100I |
| nd | 0 of 3 | 0 of 9 | L29T+F59G+Y60A |
| nd | 0 of 3 | 0 of 9 | G26R+T28D+T58P |
| 3.53 | 1 of 3 | 3 of 9 | G33H+S63L+K65V |
| 4.72 | 1 of 3 | 5 of 9 | Y32H+R57K+F105K |
| nd | 0 of 3 | 1 of 9 | S31K+D54K+D62R |
| nd | 0 of 3 | 0 of 9 | S31R+Y32A+D106W |
| nd | 0 of 3 | 1 of 9 | S31A+Y32P+G103I |
| 4.38 | 3 of 3 | 3 of 9 | S31P+R57M+F59A |
| nd | 0 of 3 | 1 of 9 | N30T+S31F+T58K |
| nd | 0 of 3 | 0 of 9 | G33K+G103S+F105E |
| nd | 0 of 3 | 0 of 9 | G26D+I34M+F105G |
| 4.96 | 2 of 3 | 2 of 9 | I34T+S35R+Y52G |
| nd | 0 of 3 | 3 of 9 | Y32R+S63H+V64I |
| 3.93 | 2 of 3 | 3 of 9 | Y52E+S53A+G61L |
| 4.38 | 2 of 3 | 2 of 9 | G26Y+G33H+D54A |
| 5.39 | 1 of 3 | 2 of 9 | I34F+R56I |
| nd | 0 of 3 | 0 of 9 | T28K+S53M+G61W |
| nd | 0 of 3 | 1 of 9 | N30Y+Y52A+R57H |
| 3.98 | 1 of 3 | 0 of 9 | N30D+F105G |
| 4.82 | 1 of 3 | 2 of 9 | Y32N+G55P+S107P |
| nd | 0 of 3 | 0 of 9 | Y32C+R57G+F105A |
| 2.49 | 1 of 3 | 0 of 9 | R57F+R100D+A101G |
| 4.24 | 2 of 3 | 1 of 9 | L29Q+R56E+S63K |

Picked from the list: the 6 lowest averages where every replicate gave a value.

{"changes": "T28I+S63A+A101T", "mean, log10 nM": "0.65", "seen in": "3 of 3", "empty controls": "3 of 9"}
{"changes": "Y32H+F59A+T104N", "mean, log10 nM": "1.41", "seen in": "3 of 3", "empty controls": "0 of 9"}
{"changes": "S31E+V50C+K65Y", "mean, log10 nM": "2.37", "seen in": "3 of 3", "empty controls": "1 of 9"}
{"changes": "F27K+S53T+T58G", "mean, log10 nM": "3.14", "seen in": "3 of 3", "empty controls": "1 of 9"}
{"changes": "S31P+R57M+F59A", "mean, log10 nM": "4.38", "seen in": "3 of 3", "empty controls": "3 of 9"}
{"changes": "Y32H+S35A+K65E", "mean, log10 nM": "4.89", "seen in": "3 of 3", "empty controls": "4 of 9"}

Three control strains display no target. For library AAYL49, 15% of the pairings with them gave a signal, with a median of 4.06 and one signal in twenty below 2.83, so weak values seen in few replicates may be background. The control count says in how many pairings with the empty strains this scFv gave a signal.